Experimental data: ChEMBL document CHEMBL1909046, “DrugMatrix in vitro pharmacology data”

The chains behind the UniProt entries cited, without tags or fusion partners. Where a name states a change or a piece, a line headed by the entry shows the natural chain unless it says otherwise.
UniProt P41145: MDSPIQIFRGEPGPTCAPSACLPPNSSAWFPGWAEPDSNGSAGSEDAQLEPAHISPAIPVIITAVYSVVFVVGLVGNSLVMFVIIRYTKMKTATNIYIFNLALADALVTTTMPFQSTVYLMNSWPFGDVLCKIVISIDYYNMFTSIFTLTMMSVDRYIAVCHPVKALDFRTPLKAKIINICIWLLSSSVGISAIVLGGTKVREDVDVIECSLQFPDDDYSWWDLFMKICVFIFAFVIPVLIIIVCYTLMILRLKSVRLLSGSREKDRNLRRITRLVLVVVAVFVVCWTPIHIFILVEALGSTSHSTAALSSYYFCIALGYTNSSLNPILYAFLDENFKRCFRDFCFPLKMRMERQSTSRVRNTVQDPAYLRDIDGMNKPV
UniProt P35372, whole entry, looked up: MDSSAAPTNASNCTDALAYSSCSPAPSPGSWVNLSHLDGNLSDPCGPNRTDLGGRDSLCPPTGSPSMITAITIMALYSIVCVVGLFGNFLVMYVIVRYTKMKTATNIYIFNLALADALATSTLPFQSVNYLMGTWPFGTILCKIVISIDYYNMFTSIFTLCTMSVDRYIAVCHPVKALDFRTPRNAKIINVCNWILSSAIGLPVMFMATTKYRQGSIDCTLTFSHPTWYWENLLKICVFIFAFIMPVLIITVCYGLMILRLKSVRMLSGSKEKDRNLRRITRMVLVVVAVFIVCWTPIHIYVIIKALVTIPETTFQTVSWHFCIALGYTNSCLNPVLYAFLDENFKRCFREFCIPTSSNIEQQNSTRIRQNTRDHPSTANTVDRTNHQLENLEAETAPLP

Experiments:
[1] = target: Kappa-type opioid receptor (Homo sapiens, UniProt P41145); assay: DRUGMATRIX: Opiate kappa (OP2, KOP) radioligand binding (ligand: [3H] Diprenorphine); settings: hek293
Mu-type opioid receptor = Mu-type opioid receptor (Homo sapiens, UniProt P35372); assay: DRUGMATRIX: Opiate mu (OP3, MOP) radioligand binding (ligand: [3H] Diprenorphine); settings: cho-k1

C[N+]1(C)[C@@H]2C[C@@H](OC(=O)[C@H](CO)c3ccccc3)C[C@H]1[C@@H]1O[C@@H]12.[Br-]
Not Active: IC50 [1] | Ki [1]

Cc1ccc2cc3c(ccc4ccccc43)c3c2c1CC3
Not Active: IC50 [1] | Ki [1] | IC50 (Mu-type opioid receptor) | Ki (Mu-type opioid receptor)

CN1C[C@H](C(=O)N[C@]2(C)O[C@@]3(O)[C@@H]4CCCN4C(=O)[C@H](Cc4ccccc4)N3C2=O)C=C2c3cccc4[nH]cc(c34)C[C@H]21
Not Active: IC50 [1] | Ki [1] | IC50 (Mu-type opioid receptor) | Ki (Mu-type opioid receptor)

C=C(C)[C@@H]1[C@H]2OC(=O)[C@@H]1[C@]1(O)C[C@H]3O[C@]34C(=O)O[C@H]2[C@]14C
Not Active: IC50 [1] | Ki [1] | IC50 (Mu-type opioid receptor) | Ki (Mu-type opioid receptor)

NNCCc1ccccc1
Not Active: IC50 [1] | Ki [1]

COc1cc([C@@H]2c3cc4c(cc3[C@H](O)[C@H]3COC(=O)[C@H]23)OCO4)cc(OC)c1OC
Not Active: IC50 [1] | Ki [1] | IC50 (Mu-type opioid receptor) | Ki (Mu-type opioid receptor)

ClC1=C(Cl)[C@]2(Cl)[C@@H]3[C@@H]4C[C@@H]([C@H]5O[C@@H]45)[C@@H]3[C@@]1(Cl)C2(Cl)Cl
Not Active: IC50 [1] | Ki [1] | IC50 (Mu-type opioid receptor) | Ki (Mu-type opioid receptor)

C[C@@H](CO)NC(=O)[C@@H]1C=C2c3cccc4[nH]cc(c34)C[C@H]2N(C)C1 [ERGONOVINE]
Not Active: IC50 [1] | Ki [1] | IC50 (Mu-type opioid receptor) | Ki (Mu-type opioid receptor)

CCCCCCCCCc1ccc(O)cc1
Not Active: IC50 [1] | Ki [1] | IC50 (Mu-type opioid receptor) | Ki (Mu-type opioid receptor)

CC(Cl)(Cl)Cl
Not Active: IC50 [1] | Ki [1] | IC50 (Mu-type opioid receptor) | Ki (Mu-type opioid receptor)
